From patent publication US20250382588A1, “CHIMERIC AAV AND USES THEREOF” (priority 2023, published 2025)

Assays:
c-Fos+ cells in the SNr = assay: c-Fos staining in the SNr after CNO; assay type: in vivo, mice; conditions: AAV8R12-G88P7-rM3Ds-2A-EYFP; intraperitoneal CNO
[1] = test system: retrogradely labeled D1-MSNs; assay: Striatal slice whole-cell recordings of retrogradely labeled MSNs; assay type: cell-based, mice; conditions: AAV8R12-G88P7-rM3Ds-2A-EYFP; CNO 10 μM
Description: Mice from different groups were anesthetized with […] isoflurane, and then decapitated. The brain was quickly extracted and placed in ice-cold N-methyl-D-glucamine (NMDG) cutting solution containing (in mM): 92 NMDG, 2.5 KCl, 25 NaHCO3, 1.25 NaH2PO4, 4.5 D-Glucose, 20 HEPES, 5 L-ascorbic acid, 3 Na-pyruvate, 2 Thiourea, 10 MgSO4, 0.5 CaCl2). The pH was adjusted to 7.2±0.1 using HCl and the osmolarity was adjusted to 305±5 mosmol/L using NMDG. The solution was bubbled with 95% O2/5% CO2 prior to use. Coronal striatum slices were cut in 250-[…] thickness with a vibratome slicer (Leica, VT1200 S), and then incubated in artificial cerebrospinal fluid (aCSF) saturated with 95% O2/5% CO2 for at least 45 min at 37° C. before recording. The aCSF contains (in mM) 125 NaCl, 1.25 KCl, 25 NaHCO3, 1.25 KH2PO4, 25 D-Glucose, 2 CaCl2) and 1 MgCl2, supplemented with 2 mM Na-pyruvate, 3 mM Myo-inositol and 0.4 mM L-ascorbic acid.
The acute striatum slice was transferred to the recording chamber with a constant perfusion of oxygenized aCSF at the rate of 3 ml/min. Neurons were visualized using an upright microscope (Olympus, BX-51) with a 40× water immersion objective at room temperature (˜25° C.). […] Neurons were quickly visualized under fluorescence microscope and then patch clamp were achieved under infrared light illumination and CCD camera. […]

rM3Ds = molecular target: T1, rM3Ds (Rattus norvegicus, UniProt P08483, A177S/A238G/A489L/DEL261-437/DEL441-478/E258S/I253V/I483M/INS256[…]/K178L/K182A/K255R/K484R/K486H/L173F/L482A/M480V/R171S/R176Q/R179M/S481M/T174R/T181R/T257A/Y148C); assay: Open field and rotarod tests in 6-OHDA parkinsonian mice; assay type: in vivo; conditions: AAV8R12-G88P7-rM3Ds-2A-EYFP
T1 sequence (P08483 with tags, fused parts or gaps Y148C/R171S/L173F/T174R/R176Q/A177S/K178L/R179M/T181R/K182A/A238G/I253V/K255R/INS256[…]/T257A/E258S/DEL261-437/DEL441-478/M480V/S481M/L482A/I483M/K484R/K486H/A489L): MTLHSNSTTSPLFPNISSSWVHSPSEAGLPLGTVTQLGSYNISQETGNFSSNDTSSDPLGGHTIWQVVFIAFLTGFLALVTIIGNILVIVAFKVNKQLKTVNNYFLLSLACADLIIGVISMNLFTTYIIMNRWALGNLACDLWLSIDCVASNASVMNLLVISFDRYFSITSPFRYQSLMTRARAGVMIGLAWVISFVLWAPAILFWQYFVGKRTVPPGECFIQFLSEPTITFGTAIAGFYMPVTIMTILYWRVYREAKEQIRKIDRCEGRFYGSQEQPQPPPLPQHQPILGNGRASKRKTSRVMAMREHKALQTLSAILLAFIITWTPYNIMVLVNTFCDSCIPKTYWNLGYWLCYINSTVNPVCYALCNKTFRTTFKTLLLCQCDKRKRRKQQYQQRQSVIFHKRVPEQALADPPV
Procedure: Rodent Parkinson's disease mice models were created through bilateral injection of 6-OHDA using the same methods as described in virus injections (Example 3). A total volume of 1 ul 6-OHDA (5 mg/ml, dissolved in sterile saline containing 0.02% ascorbic acid, Sigma) was injected into the striatum at a speed of 100 nL/min. The coordinates for striatum were 0.5 mm anterior, 1.5 mm lateral, 3.2 mm ventral to the bregma. A premedication of desipramine (25 mg/kg, Sigma) was administered to animals prior to injections of 6-OHDA, in order to increase the selectivity and efficacy of 6-OHDA-induced lesions. Mice were supplemented with DietGel (ClearH2O) for one-week post-surgery. All staining and behavioral experiments were performed at least 14 days following surgery, when the amount of dopamine depletion was maximal and stable.
6-OHDA was administered bilaterally into the striatum (FIG. 13A).
6-OHDA was bilaterally injected using the same methods described for virus injections. […]
Mice were individually handled for 10-20 seconds per day for at least 5 days to habituate them to the experimenter. […] The behavioral data were analyzed with ANY-maze software (Stoelting Co.).
Mice were individually handled as described in the open field test. […] Latency to fall for each trial was automatically recorded by the apparatus. […]

C[N+]1([O-])CCN(C2=Nc3cc(Cl)ccc3Nc3ccccc32)CC1 [CNO, clozapine N-oxide]
number of c-Fos+ cells in the SNr (c-Fos+ cells in the SNr): didn't increase the number of c-Fos+ cells | excitability of labeled striatal MSNs [1]: enhancement in the excitability | motor skill in rotor-rod/rotarod test (rM3Ds; CNO): partially rescued the motor skill deficit | spontaneous movement in an open field (rM3Ds; systemic CNO): drastically reversed the dyskinesia-like phenotype
